# A selection: hits, their analogues and other compounds. The true share with any hit is near 2.8%.
# PglD DTNB = PglD (C. jejuni) enzyme inhibition. purified PglD enzyme, DTNB colorimetric CoA detection. inhibition, % at 12.5 µM. actives 0.098% (n = 360,000). AID 602405; in the data active = inhibition above about 16%, passing the limit was not always enough; inconclusive = no clear call, values can overlap the other calls
# esBAF inh = SWI/SNF esBAF complex inhibition | actives 2% (n = 350,000) | mouse ES cells, Bmi1-luciferase knock-in reporter, 24 h; 100% = twice the neutral-well signal | reporter increase, % at 12.5 µM; in the data active = activation above about 40%; inconclusive = no clear call, values can overlap the other calls;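 also: 0% = median of the plate's neutral control wells and 100% = double that signal; a rise in the Bmi1 reporter signal indicates esBAF inhibition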
# Yeast UUG start = modulators of yeast start codon fidelity, primary screen, whole organism, S. cerevisiae, single point, plate reader | activity score, % at 18.7 µM | 350,000 tested, 0.13% active | S. cerevisiae UUG-firefly luciferase reporter, luminescence/redox ratio;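 active means replicate mean at a twofold rise or more, about +100% in these data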;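 further: firefly luciferase made from a UUG start codon reports start codon fidelity; reporter light over untreated wells divided by growth signal over untreated wells; some hits fall short of that in this replicate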
# PGC1a acetyl inh = PGC1a acetylation modulation, inhibitor mode; U2OS PGC1a acetylation, AlphaScreen anti-acetyl-lysine; with virally co-expressed GCN5 acetyltransferase; inhibition, % at 15.6 µM; actives 0.17% (n = 350,000); AID 651687;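 active = every replicate shows inhibition of at least 40%; inconclusive = mean inhibition at least 40% but some replicate below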;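 also: 0% = neutral control wells and 100% = positive control wells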
# E-sel inducer = E-selectin induction on HUVECs; P16581; HUVEC E-selectin immunofluorescence imaging; normalized: neutral wells 0, TNF-alpha wells 100; activation, % at 7.58 µM; actives 0.37% (n = 260,000);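 active = mean E-selectin-positive cell signal at least 10% of the positive control, reached in at least 60% of replicates, without over 20% cell loss; inconclusive = no rule given, readout overlaps actives, possibly toxicity-flagged; inactive = the rest, including those meeting only one limit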
#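 material = human umbilical vein endothelial cells (HUVEC), E-selectin induction | quantity = 3,000 cells/well | medium = EGM-2 growth medium on 0.1% gelatin-coated wells | technique = immunofluorescence imaging | read-out basis = % PE-positive cells | control set = TNF-alpha positive control, DMSO neutral control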
# Statin myotox sup = suppressors of simvastatin-induced myotoxicity in C2C12 myotubes; AID 602340; actives 0.78% (n = 330,000); rescue of ATP level, % at 7.49 µM; ATP luminescence, 48 h; scaled: DMSO 0, geranylgeraniol control 100;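 active = mean ATP rescue above about 67%, or every replicate alone reaching that limit, limit read from the data, passing the limit was not always enough; inconclusive = no clear call, values can overlap the other calls; inactive = mean under the limit and some replicate under it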;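 also: myotubes were challenged with 10 µM simvastatin during compound exposure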
# The depositor's hits bear a star; u = inconclusive; x = no result given.
# Value order: PglD DTNB	esBAF inh	Yeast UUG start	PGC1a acetyl inh	E-sel inducer	Statin myotox sup
Cc1cc(C)c2[nH]c(O)c(N=NC3=NC(=O)CS3)c2c1
    x	-2.3	x	-7.3	-0.3	4.9
Cc1cc(/C=N/n2cnnc2)c(C)n1-c1ccc(Cl)cc1Cl
    0.4	8.9	-8.5	-2.3	x	97.1*
CCN(CC)S(=O)(=O)c1ccc(O)c(NC(=O)COc2ccc(S(=O)(=O)N3CCOCC3)cc2)c1
    -0.6	-5.2	-9.2	x	-0.5	3.8
CCS(=O)(=O)c1ccc(O)c(NC(=O)COc2ccc(Br)cc2)c1
    x	-8.4	x	96.8*	x	-3.7
CC(C)NC(=O)N(C)C[C@H]1Oc2ccc(NC(=O)CCN3CCOCC3)cc2C(=O)N([C@H](C)CO)C[C@@H]1C
    1.3	0.7	-9.7	9.1	43.2*	0.2
CC(C)NC(=O)N(C)C[C@H]1Oc2ccc(NC(=O)CCN3CCOCC3)cc2C(=O)N([C@H](C)CO)C[C@H]1C
    -3.3	-0.3	-13.7	-2.5	25.5	-8.9
CC(C)NC(=O)N(C)C[C@@H]1Oc2ccc(NC(=O)CCN3CCOCC3)cc2C(=O)N([C@@H](C)CO)C[C@H]1C
    -1.6	-7.5	9.0	-1.3	33.0*	10.2
CC(C)NC(=O)N(C)C[C@H]1Oc2ccc(NC(=O)CCN3CCOCC3)cc2C(=O)N([C@@H](C)CO)C[C@@H]1C
    -1.6	6.7	-6.3	5.6	-11.6	15.1
CN1C(=O)c2cc(NC(=O)c3cccs3)ccc2OC[C@@H]2O[C@@H](CC(=O)NCCN3CCCCC3)CC[C@H]21
    0.8	-2.5	-19.9	-2.2	0.0	11.7
COc1ccc2c3c([nH]c2c1)[C@@H](CO)N(C(=O)C1CCCCC1)CC31CCN(C(=O)c2ccncc2)CC1
    x	x	x	x	-0.1	x

# The results go on.
# Value order: PglD DTNB	esBAF inh	Yeast UUG start	PGC1a acetyl inh	E-sel inducer	Statin myotox sup
C[C@@H]1CN([C@@H](C)CO)S(=O)(=O)c2ccc(-c3cncnc3)cc2O[C@@H]1CN(C)C(=O)C1CCC1
    1.8	-1.8	3.8	6.8	0.5	-1.1
CN1\C(=C/C=C/C=C/C=[N+](C)C)C(C)(C)c2ccccc21
    x	x	x	x	187.8*	x
CN(C)c1ccc(N=C/C=C2\N(C)c3ccccc3C2(C)C)cc1
    -2.5	-12.2	-33.5	-0.7	x	-11.4
CN1/C(=C\C=Nc2ccccc2)C(C)(C)c2ccccc21
    -4.3	-46.4	4.8	-3.0	x	85.4*
O=C(O)CN1C(=O)/C(=C\c2cc(Br)ccc2OCc2ccc(Cl)cc2)SC1=S
    -5.1	28.4	-5.3	x	49.3*	-42.2
CCCCCCn1c(=O)n2n(c1=O)C[C@]1(OC(=O)NCC3CCCCC3)CN(S(=O)(=O)c3ccc(C)cc3)C[C@]1(O)C2
    -1.8	2.0	1.8	20.8	0.0	-3.4
CCCCCCNC(=O)O[C@@]12CN(S(=O)(=O)c3ccc(C)cc3)C[C@]1(O)Cn1c(=O)n(CCCCCC)c(=O)n1C2
    1.3	0.9	0.4	68.9*	x	-3.1
O=C(C1CCCC1)N1C[C@H]2[C@@H](c3ccccc31)[C@H](CO)N2C(=O)c1ccccc1F
    0.3	-0.7	3.0	-6.8	0.0	3.1
COc1ccc(-c2cn(Cc3ccc(C)cc3)nn2)cc1
    8.5	79.0*	-11.4	-3.6	-0.1	3.3
CCOc1ccc(C2=Nc3ccccc3C(c3ccc(N4CCOCC4)cc3)=NN2)cc1
    -3.5	50.1*	-2.9	x	x	-6.2

# Records above that bear a hit mark in PGC1a acetyl inh.
SMILES	PglD DTNB	esBAF inh	Yeast UUG start	PGC1a acetyl inh
CCS(=O)(=O)c1ccc(O)c(NC(=O)COc2ccc(Br)cc2)c1	x	-8.4	x	96.8*
CCCCCCNC(=O)O[C@@]12CN(S(=O)(=O)c3ccc(C)cc3)C[C@]1(O)Cn1c(=O)n(CCCCCC)c(=O)n1C2	1.3	0.9	0.4	68.9*

# Following part
# Value order: PglD DTNB	esBAF inh	Yeast UUG start	PGC1a acetyl inh	E-sel inducer	Statin myotox sup
CCOc1ccc2c(c1)C(c1ccc(C)cc1)=NNC(c1ccc(OC)cc1)=N2
    -3.0	35.6	-26.2	-4.8	x	-9.8
CO[C@@H]1CN(C)C(=O)c2cc(NS(=O)(=O)c3ccccc3)ccc2OC[C@@H](C)N(Cc2cccnc2)C[C@H]1C
    -3.1	-3.3	6.0	-6.9	-0.2	13.3
CCOC(=O)Cn1c(N2CCOCC2)nc2c1c(=O)[nH]c(=O)n2C
    -4.5	-6.3	-1.0	6.4	x	118.4*
CCOC(=O)Cn1c(Br)nc2c1c(=O)[nH]c(=O)n2C
    0.7	7.9	-4.4	x	x	-3.4
COc1ccc(C(=O)Nc2ccc(Cl)cn2)cc1S(=O)(=O)N1CCCC1
    -1.6	13.7	-15.1	-10.0	0.2	5.4
Cc1ccc(C(=O)Nc2ccc3ccccc3n2)cc1
    -3.6	6.2	-41.9	1.2	0.4	-44.4
O=C(Nc1ccc2ncccc2c1)c1ccccc1Br
    1.7	110.1*	-23.4	x	x	-1.3
COc1ccc(C(=O)Nc2ccc(Cl)cn2)cc1Cl
    -1.1	68.8*	-21.1	-0.7	x	-7.3
COc1ccc(C(=O)Nc2ccc3ccccc3n2)cc1OC
    1.0	70.4*	-15.8	9.7	0.2	-13.3
O=C(Nc1ccc2ncccc2c1)Nc1ccc2ncccc2c1
    3.6	u	-9.2	x	15.3	-12.1

# The listing continues.
# Value order: PglD DTNB	esBAF inh	Yeast UUG start	PGC1a acetyl inh	E-sel inducer	Statin myotox sup
CCn1ccc(C(=O)Nc2ccc(Cl)cn2)n1
    -3.1	48.4*	-14.2	x	-0.1	16.2
O=C(Nc1ccc2ccccc2n1)c1ccccc1Br
    2.7	51.7*	-24.1	0.4	-8.3	7.3
CN(C)c1ccc(Nc2ccc([N+](=O)[O-])cn2)cc1
    -10.6	50.5*	-4.5	-11.4	x	-0.2
CCS(=O)(=O)Nc1ccc2c(c1)C(=O)N(C)C[C@@H](OC)[C@@H](C)CN(CCC(F)(F)F)[C@@H](C)CO2
    0.8	-4.3	x	-2.2	0.2	18.5
COc1ccc(NC(=O)N[C@@H]2CC[C@@H](CCNC(=O)c3ccccc3F)O[C@H]2CO)cc1
    4.3	-3.3	-8.5	6.3	2.8	0.5
c1ccc2nc3c(nc2c1)OCC1CCCCN31 (configuration not stated)
    -0.3	48.1*	-18.4	x	0.0	-3.6
O=C(Nc1nc(-c2nc3ccccc3s2)cs1)c1ccco1
    -3.1	51.6*	-5.0	-1.4	0.1	-25.3
N=C1C(c2nc3ccccc3s2)=C(O)CN1NC(=O)c1ccco1
    -2.6	6.7	-11.9	-3.8	32.8*	-4.6
Cc1csc(NC(=O)c2ccco2)n1
    0.5	32.5	-20.5	0.8	x	16.8
CCCCN1CC(O)=C(c2nc3ccccc3s2)C1=N
    -1.3	58.3*	-8.9	-15.1	x	-20.0

# An excerpt from above in order of their number in Yeast UUG start, smallest number first:
Compound	PglD DTNB	esBAF inh	Yeast UUG start	PGC1a acetyl inh
Cc1cc(/C=N/n2cnnc2)c(C)n1-c1ccc(Cl)cc1Cl	0.4	8.9	-8.5	-2.3
CC(C)NC(=O)N(C)C[C@H]1Oc2ccc(NC(=O)CCN3CCOCC3)cc2C(=O)N([C@@H](C)CO)C[C@@H]1C	-1.6	6.7	-6.3	5.6
CCOC(=O)Cn1c(Br)nc2c1c(=O)[nH]c(=O)n2C	0.7	7.9	-4.4	x

# Carrying on:
# Value order: PglD DTNB	esBAF inh	Yeast UUG start	PGC1a acetyl inh	E-sel inducer	Statin myotox sup
N=C1C(c2nc3ccccc3s2)=C(O)CN1CCCO
    -0.9	4.7	1.9	x	x	-7.0
COc1ccccc1OCc1csc(NC(=O)c2ccco2)n1
    0.0	76.7*	-11.4	-11.7	x	9.9
CS(=O)(=O)Nc1ccc2c(c1)[C@@H]1C[C@H](CC(=O)NCc3ccccc3)O[C@@H](CO)[C@@H]1O2
    2.6	-0.6	-1.0	3.9	-0.4	0.1
CCc1ccc(CCC(=O)Nc2sc(C)c(C)c2C(=O)OC)o1
    -1.7	-4.5	13.0	-22.3	x	94.1*
C[C@H]1CN([C@@H](C)CO)C(=O)c2cccc(NC(=O)Nc3ccc(F)cc3)c2O[C@@H]1CN(C)S(C)(=O)=O
    -1.6	0.9	11.3	3.8	x	-15.7
O=C(C[C@@H]1C[C@H]2c3cc(NS(=O)(=O)c4ccc(F)cc4)ccc3O[C@H]2[C@H](CO)O1)NC1CCCCC1
    -0.6	17.6	x	-7.9	-0.4	-3.7
O=S(=O)(Nc1ccc(-c2nc3cccnc3s2)cc1)c1cccs1
    -3.1	30.8	-22.6	x	x	-28.6
Cc1cc(-c2nc3cccnc3s2)ccc1NS(=O)(=O)c1cccs1
    -0.8	44.9*	-18.4	x	x	-16.3

# Compound activity (PubChem BioAssay)
